Reference: patent US7034056B2, “Aryl and biaryl compounds having MCH modulatory activity” (Pharmacopeia Drug Discovery, inc., priority 2001, dated 2006)
Where two headings read alike, the source gives them in different places.

The chains behind the UniProt entries cited, without tags or fusion partners.
UniProt Q99705, whole entry: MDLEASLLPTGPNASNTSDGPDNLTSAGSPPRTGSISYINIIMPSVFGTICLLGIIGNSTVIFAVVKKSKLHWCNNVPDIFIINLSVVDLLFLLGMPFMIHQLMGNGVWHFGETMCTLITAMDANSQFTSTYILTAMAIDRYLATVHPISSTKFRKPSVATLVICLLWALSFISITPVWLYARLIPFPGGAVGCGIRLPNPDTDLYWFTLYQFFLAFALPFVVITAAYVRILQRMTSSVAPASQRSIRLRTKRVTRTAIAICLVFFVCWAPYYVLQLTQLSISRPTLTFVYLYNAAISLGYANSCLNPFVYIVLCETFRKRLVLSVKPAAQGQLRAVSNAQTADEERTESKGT

Molecular target: hMCHR (MCH receptor) (Homo sapiens, UniProt Q99705)
Test: MCH Assay PCOP Protocol ([125I]-MCH SPA binding to hMCHR-CHO membranes)
[1] = read-out: Activity (Ki range), [125I]-MCH binding to hMCHR-CHO membranes, class symbols for ranges of Ki
[2] = read-out: Activity (ranges of Ki values), [125I]-MCH 0.5 nM, hMCHR-CHO membranes

Row | Compound | Ki [1] [nM] | Ki [2] [nM]
1 | Cc1noc(C)c1NCCC(CNC(=O)Nc1cc(Cl)cc(Cl)c1)c1ccc(Cl)cc1 (centres unmarked) | 501 to 2500 | 
2 | O=C(NCC(CCNCCc1c[nH]c2ccccc12)c1ccc(Cl)c(Cl)c1)Nc1cccc(C(F)(F)F)c1 (centres unmarked) | 51 to 500 | 
3 | CCN(CCC(CNC(=O)Nc1cc(Cl)cc(Cl)c1)c1ccc(-c2cccc(C#N)c2)cc1)S(C)(=O)=O (centres unmarked) |  | 51 to 500
4 | Cc1ccc(C(CCN2CCC(NS(C)(=O)=O)CC2)CNC(=O)Nc2cc(Cl)cc(Cl)c2)cc1 (centres unmarked) |  | 51 to 500
5 | O=C(NCC(CCNC1CCCC1)c1ccc(-c2cccc([N+](=O)[O-])c2)cc1)Nc1cc(Cl)cc(Cl)c1 (centres unmarked) | 0.4 to 50 | 
